Legend:
EP2 Receptor = target: T1, EP2 Receptor (Homo sapiens, UniProt P43116); experiment: EP2 Ki (table under competitive [3H]PGE2 binding assay)
T1 construct: host or cells: unnamed cultured cells, membrane fraction

Chains of the proteins cited; added tags and fusions are not shown. Lines headed by an entry give the natural chain unless they say otherwise; changes in a name come on top.
UniProt P43116: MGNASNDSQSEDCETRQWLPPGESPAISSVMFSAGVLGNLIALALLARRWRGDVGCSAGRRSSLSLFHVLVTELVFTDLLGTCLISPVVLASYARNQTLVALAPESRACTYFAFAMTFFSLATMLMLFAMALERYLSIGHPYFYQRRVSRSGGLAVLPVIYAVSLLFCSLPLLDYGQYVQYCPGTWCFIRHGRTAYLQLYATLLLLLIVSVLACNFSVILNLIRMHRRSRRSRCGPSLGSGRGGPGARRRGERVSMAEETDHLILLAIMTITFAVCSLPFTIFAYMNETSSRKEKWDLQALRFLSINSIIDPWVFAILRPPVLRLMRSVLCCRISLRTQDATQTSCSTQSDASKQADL
UniProt P35408: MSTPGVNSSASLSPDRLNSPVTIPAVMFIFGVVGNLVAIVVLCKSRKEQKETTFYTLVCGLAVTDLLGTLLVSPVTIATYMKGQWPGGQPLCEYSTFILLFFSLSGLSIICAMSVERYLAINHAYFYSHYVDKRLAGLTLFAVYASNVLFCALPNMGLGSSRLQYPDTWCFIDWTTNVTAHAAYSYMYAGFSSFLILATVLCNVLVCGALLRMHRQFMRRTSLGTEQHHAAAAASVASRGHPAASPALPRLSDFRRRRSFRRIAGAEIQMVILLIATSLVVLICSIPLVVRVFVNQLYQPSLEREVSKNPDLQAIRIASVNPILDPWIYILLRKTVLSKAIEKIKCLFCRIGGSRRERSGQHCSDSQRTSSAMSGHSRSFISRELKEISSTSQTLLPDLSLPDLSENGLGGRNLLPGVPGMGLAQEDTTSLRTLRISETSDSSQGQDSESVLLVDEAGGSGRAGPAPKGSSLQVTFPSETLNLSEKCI

rEP3 Receptor = target: T2, rEP3 Receptor (UniProt P34980); experiment: Competitive Binding Assay of [3H]PGE2 to rEP3 Receptor; settings: 3 nM [3H]PGE2, membrane fraction, 1 hr at 30° C.; read-out: EP3, Ki
T2 sequence (P34980 1-365): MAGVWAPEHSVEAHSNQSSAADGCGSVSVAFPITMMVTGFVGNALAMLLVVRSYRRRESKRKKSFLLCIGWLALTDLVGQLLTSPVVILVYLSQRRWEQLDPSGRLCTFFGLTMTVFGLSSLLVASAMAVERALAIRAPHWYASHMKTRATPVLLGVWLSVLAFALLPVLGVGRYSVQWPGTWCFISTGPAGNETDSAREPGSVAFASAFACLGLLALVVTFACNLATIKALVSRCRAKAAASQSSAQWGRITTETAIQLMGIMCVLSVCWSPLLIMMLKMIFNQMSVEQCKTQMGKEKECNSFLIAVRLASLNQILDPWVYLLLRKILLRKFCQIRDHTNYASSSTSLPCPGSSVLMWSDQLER
Protocol: (§1) Competitive Binding Assay of [^3H]PGE2 to rEP1 or rEP3 Receptor
(§2) The cells were maintained in culture then harvested upon confluency. […] Incubations were conducted for 1 hr at 30° C. prior to separation of the bound and free radioligand by rapid filtration. Residual [^3H]PGE2 bound to the filter was quantitated by liquid scintillation counting. The Ki of a compound was calculated by the program of one site binding calculation of Prism.

EP4 Receptor = target: T3, EP4 Receptor (Homo sapiens, UniProt P35408); experiment: EP4 Ki (table under competitive [3H]PGE2 binding assay)
T3 construct: host or cells: unnamed cultured cells, membrane fraction
Protocol: [Worded in the source for another target; this target is reported under the same test.] as §1
as §2, with “confluency. The membrane was prepared by two times of centrifugation (12,000× g for 15 min) following lysis of cells by polytron homogenization of 15 sec. in 10 volume of 20 mM Hepes pH 7.4 containing 1 mM EDTA, 10 mM MgCl2, 20 uM indomethacin at 4° C.” for “confluency.”

“7-{(R)-2-[(E)-3-(4′-Chloro-2′-methyl-biphenyl-3-yl)-3-hydroxy-propyl]-5-oxo-pyrrolidin-1-yl}-heptanoic acid [Compound 50]” was tested. Which Ki (EP2 Receptor) did it give?
The Ki was 26 µM.

What about the Ki (rEP3 Receptor) of the same substance?
The Ki was > 100 µM.

And the Ki (EP4 Receptor)?
Its Ki is 0.008 µM.

Source: US6900336B2, “8-aza-11-deoxy prostaglandin analogues” (Syntex (U.S.A.) LLC, priority 2001, dated 2005)
